Columns and labels:
[1] = target: T1, Adenylate cyclase type 10 (Homo sapiens, UniProt Q96PN6)
[2] = target: T1, Adenylate cyclase type 10; remark: listed apart in the source

Chains of the proteins cited; added tags and fusions are not shown. Lines headed by an entry give the natural chain unless they say otherwise; changes in a name come on top.
UniProt Q96PN6: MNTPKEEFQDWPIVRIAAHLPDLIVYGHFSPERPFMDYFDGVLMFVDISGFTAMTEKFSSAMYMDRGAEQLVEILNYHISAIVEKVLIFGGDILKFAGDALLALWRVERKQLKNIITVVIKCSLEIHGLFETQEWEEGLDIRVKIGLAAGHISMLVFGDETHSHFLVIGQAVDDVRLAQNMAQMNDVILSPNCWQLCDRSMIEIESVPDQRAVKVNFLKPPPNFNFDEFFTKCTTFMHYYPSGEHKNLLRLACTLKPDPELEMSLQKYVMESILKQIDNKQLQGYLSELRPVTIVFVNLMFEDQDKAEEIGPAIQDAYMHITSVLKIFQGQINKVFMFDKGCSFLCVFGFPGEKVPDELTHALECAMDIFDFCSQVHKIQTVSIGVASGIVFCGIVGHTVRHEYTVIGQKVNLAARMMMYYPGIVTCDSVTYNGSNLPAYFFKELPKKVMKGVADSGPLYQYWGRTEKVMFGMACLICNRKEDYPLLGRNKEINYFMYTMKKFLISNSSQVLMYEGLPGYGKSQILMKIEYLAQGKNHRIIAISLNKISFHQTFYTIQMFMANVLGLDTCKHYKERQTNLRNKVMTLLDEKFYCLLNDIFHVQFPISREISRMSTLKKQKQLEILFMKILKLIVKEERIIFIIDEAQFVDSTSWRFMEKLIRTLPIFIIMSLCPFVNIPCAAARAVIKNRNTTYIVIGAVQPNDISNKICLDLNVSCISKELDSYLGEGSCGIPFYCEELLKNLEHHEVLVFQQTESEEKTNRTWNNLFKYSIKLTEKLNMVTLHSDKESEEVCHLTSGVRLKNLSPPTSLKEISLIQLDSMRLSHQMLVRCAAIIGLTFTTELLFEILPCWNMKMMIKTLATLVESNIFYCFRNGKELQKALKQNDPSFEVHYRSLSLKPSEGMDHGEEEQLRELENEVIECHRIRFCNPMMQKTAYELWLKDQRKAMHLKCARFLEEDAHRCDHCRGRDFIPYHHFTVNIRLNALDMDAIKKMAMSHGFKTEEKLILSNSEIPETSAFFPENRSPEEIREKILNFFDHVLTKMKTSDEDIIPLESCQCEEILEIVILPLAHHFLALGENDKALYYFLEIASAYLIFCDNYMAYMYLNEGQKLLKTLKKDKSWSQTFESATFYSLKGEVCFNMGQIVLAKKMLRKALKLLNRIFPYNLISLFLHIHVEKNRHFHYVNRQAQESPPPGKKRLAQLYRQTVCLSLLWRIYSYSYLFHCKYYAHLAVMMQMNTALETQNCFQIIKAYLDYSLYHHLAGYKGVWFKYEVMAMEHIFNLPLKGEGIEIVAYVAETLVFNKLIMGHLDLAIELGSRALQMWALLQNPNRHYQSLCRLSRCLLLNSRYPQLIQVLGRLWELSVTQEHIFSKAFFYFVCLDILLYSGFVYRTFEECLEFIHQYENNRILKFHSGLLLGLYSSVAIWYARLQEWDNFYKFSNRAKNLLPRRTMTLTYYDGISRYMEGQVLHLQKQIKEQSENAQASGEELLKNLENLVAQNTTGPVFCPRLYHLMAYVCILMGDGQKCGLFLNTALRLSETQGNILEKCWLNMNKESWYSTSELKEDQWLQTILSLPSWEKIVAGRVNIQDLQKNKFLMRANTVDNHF

SMILES	IC50 [1] [nM]	Kd [2] [nM]
Cn1cc(Cc2ccccc2)c(-c2cc(Cl)nc(N)n2)n1	1020	–
Nc1nc(Cl)cc(-c2nn(C(F)F)cc2Cc2ccccc2OCCN2CCOCC2)n1	3.9	3.3
CC1(O)CCN(CCOc2ccccc2Cc2cn(C(F)F)nc2-c2cc(Cl)nc(N)n2)CC1	4	3.6
Nc1nc(Cl)cc(-c2nn(C(F)F)cc2Cc2ccccc2OCCN2CCNC(=O)C2)n1	2.1	5.5
COC(=O)c1ccccc1Cc1cn(C)nc1-c1cc(Cl)nc(N)n1	21	–
Cn1cc(Cc2ccccc2OCCN2CCNC(=O)C2)c(-c2cc(Cl)nc(N)n2)n1	16.9	–
COC(=O)c1cccc(Cc2cn(C)nc2-c2cc(Cl)nc(N)n2)c1	436	–
Nc1nc(Cl)cc(-c2nn(C(F)(F)F)cc2Cc2ccccc2)n1	469	–
Cn1cc(Cc2ccccc2OCCN2CC3(COC3)C2)c(-c2cc(Cl)nc(N)n2)n1	7.8	–
Cn1cc(Cc2ccccc2OCCN2CCOCC2)c(-c2cc(Cl)nc(N)n2)n1	12.3	–
Cn1cc(Cc2ccccc2OCCN2CC3CC(C2)O3)c(-c2cc(Cl)nc(N)n2)n1	6.7	–
Cn1cc(Cc2ccccc2Oc2ccccc2)c(-c2cc(Cl)nc(N)n2)n1	87.1	–

Reference: ChEMBL document CHEMBL5214996, “Design, Synthesis, and Pharmacological Evaluation of Second-Generation Soluble Adenylyl Cyclase (sAC, ADCY10) Inhibitors with Slow Dissociation Rates” (J Med Chem, 2022)
